Measurements: US6391848B1, “Soybean protein nutraceuticals” (The Regents of the University of California, priority 1999, dated 2002)

Settings: in vivo

Substance: lunasin
- survival of digestion, absorption and tissue distribution: effectively survives digestion, gets absorbed and ends up in the tissues
